Results from ChEMBL document CHEMBL4433206, “Novel Lysine-Based Thioureas as Mechanism-Based Inhibitors of Sirtuin 2 (SIRT2) with Anticancer Activity in a Colorectal Cancer Murine Model” (J Med Chem, 2019).

System: CCD-841CoN
Experiment: Growth inhibition of human CCD-841-CoN cells after 72 hrs by CellTiter-Blue assay
Assay type: cell-based
How it was run: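 CCD 841 CoN normal colon cells grown in DMEM with 10% FBS at 37 °C, 5% CO2. 3000 cells/well seeded, 20 h at 37 °C. Inhibitor added at final 1–100 μM, then 72 h at 37 °C. Viability read by CellTiter-Blue after 4 h at 37 °C, fluorescence 560 nm excitation/590 nm emission. GI50 derived.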

In the case of CCCCCCCCNC(=S)NCCCC[C@H](NC(=O)OCc1ccccc1)C(=O)Nc1ccccc1, the GI50 is reported as 137 µM.
